Legend:
[1] = system: HUVEC; assay: Apoptosis assay (serum withdrawal, Annexin V/PI flow cytometry); type: cell-based, Human; settings: serum-starved 48 hours, vehicle, versus empty control lentivirus
[2] = system: HUVEC; assay: Migration (wound healing) assay; type: cell-based, Human; settings: under stimulation of serum, 18 hours
Description: For the cell migration assay, endothelial cells were cultured to confluence in 24-well plates. Prior to serum starvation, the cells were treated with 10 μg/ml mitomycin C for four hours to block proliferation, and then washed three times with DMEM. The cells were starved overnight with 0.5% FBS, DMEM. A scratch was then made using a 200 μl tip, and the cells were allowed to migrate for 18 hours in DMEM containing 0.5%, 10% FBS or 50 ng/ml VEGF. Pictures were taken right after scratch making and at the end of migration. The migration rate was then determined by analyzing the distance that cells migrated during the period.

[3] = system: HDLEC; assay: qPCR of lymphatic fate genes in adenovirus-transduced HDLEC; type: cell-based, Human; settings: HDLEC transduced with the named construct
Excerpt: (§1) Raf1 lentiviruses were produced in 293A cells (Invitrogen) by co-transfection of pLVX-HA-Raf1 WT or S259A with lentiviral packaging plasmids pMD2.G, pRSV-REV and pMDLg/pRRE (Addgene) as described by Dull, J Virol 72:8463-8471 (1998). Control lentivirus was also made using an empty vector pLVX-IRES-puro. Ad-MEK1 CA was from Cell Biolabs, Inc. Ad-Mek1 DN was purchased from Vector Biolabs. All adenoviruses were produced, amplified and purified as described by Dull 1998; Luo, et al. Nat Protoc 2:1236-1247 (2007). For lentiviral infection, cells were incubated with lentivirus in growth medium in the presence of 8 μg/ml polybrene (Sigma) for 8 hours. For adenoviral infection, cells were incubated with adenovirus (MOI=100) in growth medium for overnight.
(§2) Total RNA was purified using a QiagenRNeasyPlus Mini kit. cDNA was synthesized using a Bio-Rad iScript cDNA Synthesisis kit. qPCR was performed using a Bio-Rad iQ SYBR Green Supermix on a Bio-Rad CFX96 Real Time System. For immunoblot, cells were lysed in RIPA buffer supplemented with protease and phosphatase inhibitors. Cell lysates were then separated with 4-20% gradient gel (Bio-Rad) and subjected to immunoblot.

[4] = system: 14-3-3; assay: Immunoprecipitation of HA-RAF1 from HUVEC, western blot for 14-3-3; type: binding, Human; settings: anti-HA immunoprecipitation
Description: To determine whether Ser259 to Ala259 mutation in RAF1 affects ERK activation in endothelial cells, wild type and mutant RAF1 (RAF1 S259A) were overexpressed in HUVEC. HUVEC cells were infected with equal amount of empty lentivirus (Control), RAF1 WT (Raf1 WT) lentivirus or RAF1 S259A (Raf1 S259A) lentivirus as described above. Forty eight hours later, the cells were selected with 0.5 μg/ml puromycin for 4 days and analyzed by western blot with indicated antibodies. HUVEC cells described above were lysed as described, and immunoprecipitation was performed using anti-HA or control mouse IgG. For immunoprecipitation, cells were otherwise lysed in Triton lysis buffer (10 mM Tris-HCl, pH 7.5, 150 mM NaCl, 1% Triton X-100) supplemented with protease (Sigma) and phosphatase (Boston Bioproducts) inhibitors. Antibodies and Protein G agarose beads were then added to the cell lysates and incubated for 4 hours and 2 hours respectively. The beads were washed 6 times with Triton lysis buffer, boiled in 1× Laemmli loading dye, and subjected to SDS-PAGE and Western Blot
The immunoprecipitates were then analyzed by western blot with indicated antibodies.

[5] = system: HUVEC; assay: qPCR of artery-vein specification genes in lentivirus infected HUVEC; type: cell-based, Human
Description: (§3) The expression levels of a collection of genes involved in artery-vein specification in control, Raf1 WT and Raf1 S259A lentivirus infected HUVEC were investigated using real time quantitative PCR. For qPCR analysis, RNA was prepared from cells using a Qiagen RNaeasy kit (Cat. 74106) following the instructions from the manufacturer. cDNA was synthesized using iScript cDNA Synthesis kit (Bio-Rad). Gene expression was then analyzed by qPCR using a Bio-Rad SYBR kit on a Bio-Rad CFX96 system. Primers for qPCR were all purchased from SA Biosciences Corporation, MD. All gene expressions were normalized to glyceraldehyde-3-phosphate dehydrogenase (GAPDH) levels and represented as mRNA per 10^3 GAPDH. Standard errors were calculated based on three independent experiments. The cell lysates of these cells were also prepared and analyzed by western blot using indicated antibodies. In other experiments, HUVEC cells were infected with different doses (MOI: 0, 5, 10, 50) of Raf1 WT or S259A adenovirus for 48 hours. Cells were lysed and analyzed by western blot using indicated antibodies. (FIG. 3P).

[6] = system: HUVEC; assay: Proliferation assay (cell counting); type: cell-based, Human; settings: overexpression in HUVEC
Description: Endothelial cells were placed on fibronectin-coated 24-well plates at a seeding density of 6000 cells/well in EGM-2 medium. Cell proliferation was analyzed by counting cell numbers every 24 fours.

[7] = system: HUVEC; assay: Matrigel tube formation assay; type: cell-based, Human; settings: overexpression in HUVEC, 8 hours
Description: Twenty four well plates were coated with 0.5 ml growth factor reduced Matrigel (BD Bioscience) at 37° C. for 1 hour. Endothelial cells were then trypsinized with 0.25% Trypsin-EDTA (Gibco), washed twice with and resuspended in serum-free DMEM (Lonza). Cell number was counted, and 6×10^4 cells were plated onto the Matrigel coated plates. Endothelial tube was allowed to form for 8 hours. Then the cells were fixed in 4% paraformaldehyde (PFA) in PBS, and pictures were taken under a convert microscope. Tube length was quantitated using Image J 1.410 (NIH).

[8] = system: HUVEC; assay: qPCR of lymphatic fate genes in virus-transduced HUVEC; type: cell-based, Human; settings: HUVEC transduced with the named construct
Excerpt: as §1, §2

[9] = system: HUVEC; assay: Western blot of DLL4, cleaved NOTCH1 and ERK in RAF1 virus infected HUVEC; type: cell-based, Human; settings: adenovirus MOI 0, 5, 10, 50 for 48 hours
Description: as §3

[10] = system: ERK; assay: ERK activation by western blot in HUVEC infected with RAF1 WT or RAF1 S259A lentivirus; type: cell-based, Human; settings: overexpression in HUVEC by lentivirus
Description: ERK activation was quantified by densitometry and is represented as ratio of pERK1/2 versus total ERK1/2. Immunofluorescence staining showing higher P-ERK1/2 in β-GAL positive endothelial cells of E12.5 S259A embryos. jv, jugular vein. FIGS. 10B-10E are graphs showing HUVEC transduced with control, wild type Raf1 or RAF1S259A lentiviruses treated with DMSO, MEK inhibitor U0126 (10 μM) or PI3K inhibitor LY294002 (10 μM) for 24 hours. Sox18 (FIG. 10B), Prox1 (Figure), Vegfr3 (FIG. 10D) and Lyve1 (10E) expression was assessed by qPCR. FIGS. 10E-10H are graphs showing HUVEC transduced with GFP or RAF1S259A adenoviruses treated with DMSO, Rapamycin (10 nM), AKT inhibitor VIII (1 μM) and LY294002 (10 μM) for 24 hours. Sox18 (FIG. 10F), Prox1 (FIG. 10G) and Coup-TFII (FIG. 10H) expression assessed by qPCR. Data are Mean±SEM (n=3).*, p<0.05; **, p<0.01.
Cells were cultured to 50-60% confluence on 6-well plates. […]
To determine whether Ser259 to Ala259 mutation in RAF1 affects ERK activation in endothelial cells, wild type and mutant RAF1 (RAF1 S259A) were overexpressed in HUVEC. […] Forty eight hours later, the cells were selected with 0.5 μg/ml puromycin for 4 days and analyzed by western blot with indicated antibodies. […]

RAF1 WT: HA-tagged human wild type RAF1 overexpressed by lentivirus or adenovirus [reference compound]
cell survival [1]: lower survival | cell migration [2]: no obvious effect | Sox17 expression [3]: not | Sox18 expression [3]: not | co-immunoprecipitation with 14-3-3 [4]: co-immunoprecipitated | effect on these genes (arterial genes induced by RAF1 S259A) [5]: marginal effect | cell proliferation [6]: little effect | tube formation (tube length) [7]: slightly improved | Prox1 expression [8]: no significant effects | Sox17 expression [8]: not | Sox18 expression ([8]; listed as wild type RAF1): no significant effects | Sox18 expression ([8]; listed as wild type Raf1): not | DLL4 protein [9]: marginal effect | ERK activity [9]: marginal effect | ERK activation [10]: marginal effect

Source: patent US20140120106A1, “Stimulation of Arterial Collateral Growth and Lymphogenesis” (YALE UNIVERSITY, priority 2011, published 2014)
